In US7470815B1, “Selective neuronal nitric oxide synthase inhibitors” (Northwestern University, priority 2006, dated 2008):

Experiment: Stability in Hepes buffer (enzyme assay medium)
Conditions: Hepes buffer (pH 7.5), the medium for the enzyme assay

SMILES	stability in Hepes buffer
N=C(NCCC[C@H](N)CNc1cccc(N)c1)N[N+](=O)[O-] [Compound 15, Na-(4S)-{[4-Amino-5-(3-amino)phenylamino]pentyl}-N′-nitroguanidine]	unstable
N/C(=N\CCC[C@H](N)CNc1ccc(N)cc1)N[N+](=O)[O-] [Compound 16, N-(4S)-{[4-Amino-5-(4-amino)phenylamino]-pentyl}-N′-nitroguanidine]	unstable
